Test results taken from patent US20010007152A1, “RECOMBINANT CONSTRUCTS ENCODING T CELL RECEPTORS SPECIFIC FOR HUMAN HLA-RESTRICTED TUMOR ANTIGENS” (priority 1996, published 2001).

By UniProt entry, the sequences of proteins in these tests, tags left out.
UniProt P01901, whole entry, looked up, stated change not applied: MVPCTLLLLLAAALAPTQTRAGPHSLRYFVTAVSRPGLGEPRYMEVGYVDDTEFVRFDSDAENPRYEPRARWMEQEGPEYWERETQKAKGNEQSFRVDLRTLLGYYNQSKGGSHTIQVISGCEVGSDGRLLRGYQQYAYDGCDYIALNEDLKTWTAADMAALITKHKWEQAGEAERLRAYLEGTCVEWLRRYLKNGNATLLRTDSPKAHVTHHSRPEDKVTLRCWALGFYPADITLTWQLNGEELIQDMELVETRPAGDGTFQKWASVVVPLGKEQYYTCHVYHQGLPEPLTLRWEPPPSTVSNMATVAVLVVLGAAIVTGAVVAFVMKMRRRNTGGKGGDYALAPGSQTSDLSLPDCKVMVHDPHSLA

Legend:
[1] = system: LG-2; assay: Lysis of tumor cells by peptide-specific CTL; assay type: cell-based, human; conditions: 6 hours
[2] = system: MDA.MB231; assay: Lysis of tumor cells by peptide-specific CTL; assay type: cell-based, human; conditions: 6 hours
[3] = system: MDA.MB435; assay: Lysis of tumor cells by peptide-specific CTL; assay type: cell-based, human; conditions: 6 hours
[4] = system: ST486; assay: Lysis of tumor cells by peptide-specific CTL; assay type: cell-based, human; conditions: 6 hours
[5] = system: BT549; assay: Lysis of tumor cells by peptide-specific CTL; assay type: cell-based, human; conditions: 6 hours
[6] = system: SAOS.175; assay: Lysis of tumor cells by peptide-specific CTL; assay type: cell-based, human; conditions: 6 hours
[7] = system: T98G; assay: Lysis of tumor cells by peptide-specific CTL; assay type: cell-based, human; conditions: 6 hours
[8] = system: U87G; assay: Lysis of tumor cells by peptide-specific CTL; assay type: cell-based, human; conditions: 6 hours
[9] = system: SKMEL-5; assay: Lysis of tumor cells by peptide-specific CTL; assay type: cell-based, human; conditions: 6 hours
[10] = system: Hep-G2; assay: Lysis of tumor cells by peptide-specific CTL; assay type: cell-based, human; conditions: 6 hours
[11] = system: MCF-7; assay: Lysis of tumor cells by peptide-specific CTL; assay type: cell-based, human; conditions: 6 hours
[12] = system: SW480; assay: Lysis of tumor cells by peptide-specific CTL; assay type: cell-based, human; conditions: 6 hours
[13] = system: JY; assay: Lysis of tumor cells by peptide-specific CTL; assay type: cell-based, human; conditions: 6 hours
[14] = system: MALME-3M; assay: Lysis of tumor cells by peptide-specific CTL; assay type: cell-based, human; conditions: 6 hours
[15] = system: CASKI; assay: Lysis of tumor cells by peptide-specific CTL; assay type: cell-based, human; conditions: 6 hours
[16] = system: SV80; assay: Lysis of tumor cells by peptide-specific CTL; assay type: cell-based, human; conditions: 6 hours
[17] = system: U2-OS; assay: Lysis of tumor cells by peptide-specific CTL; assay type: cell-based, human; conditions: 6 hours
[18] = system: OVCAR-5; assay: Lysis of tumor cells by peptide-specific CTL; assay type: cell-based, human; conditions: 6 hours
[19] = system: NCl.H1355; assay: Lysis of tumor cells by peptide-specific CTL; assay type: cell-based, human; conditions: 6 hours
[20] = target: T1, HLA A2.1 (UniProt P01901+P04439, D140Y/D185E/D98H/E176V/G131W/I119V/I121R/I166T/N151K/N90K/Q86G/Q94H/R138H/R169H); assay: Competition assay: inhibition of influenza matrix peptide M1 (58-66) binding to A2.1, read as inhibition of lysis by an M1-specific CTL clone; parameters: species or system human; conditions: test peptide 10 μg vs influenza matrix peptide 0.1 μg; T2-A2.1/K^b target cells
T1 construct: expressed in transfected cells; host or cells: T2-A2.1/K^b cells
Protocol: Briefly, each test peptide (10 μg) was incubated with radiolabeled target cells (T2-A2.1/K^b, 10^6 target cells labeled with […] ^51Cr at 37° for 1.5 hours) in the presence of an influenza virus matrix protein (0.1 μg). The ability of these peptides to inhibit the binding of the influenza matrix protein peptide MI (58-66) to A2.1 was measured by inhibition of lysis by an M1 (58-66) specific, A2.1 restricted CTL clone.

[21] = tumor preincubated 24 hours with 20 ng/ml γ-IFN and 3 ng/ml TNF-α

Q: With CC[C@H](C)[C@H](NC(=O)[C@@H](N)CCCCN)C(=O)N[C@@H](Cc1ccccc1)C(=O)NCC(=O)N[C@@H](CO)C(=O)N[C@@H](CC(C)C)C(=O)N[C@@H](C)C(=O)N[C@@H](Cc1ccccc1)C(=O)N[C@@H](CC(C)C)C(=O)O [H3] as the molecule, how does the Killing of tumor (lysis) ([1]; LG-2, EBV-trans., A2 +, Her-2 −, no cytokine preincubation) read?
A: 2%

Q: What about the “Killing of tumor (lysis) + CYT” value ([1]; LG-2, tumor preincubated 24 hours with 20 ng/ml γ-IFN and 3 ng/ml TNF-α) of the same molecule?
A: 4

Q: And the Killing of tumor (lysis) ([2]; MDA.MB231, breast, A2 +, Her-2 +, no cytokine preincubation)?
A: 34%

Q: And the “Killing of tumor (lysis) + CYT” value ([2]; MDA.MB231, tumor preincubated 24 hours with 20 ng/ml γ-IFN and 3 ng/ml TNF-α)?
A: 85

Q: And the Killing of tumor (lysis) ([3]; MDA.MB435, breast, A2 −, Her-2 +, no cytokine preincubation)?
A: 3%

Q: What about the “Killing of tumor (lysis) + CYT” value ([3]; MDA.MB435, tumor preincubated 24 hours with 20 ng/ml γ-IFN and 3 ng/ml TNF-α) of the same molecule?
A: 2

Q: And the Killing of tumor (lysis) ([4]; ST486, lymphoma, A2 +, Her-2 −, no cytokine preincubation)?
A: 1%

Q: What about the “Killing of tumor (lysis) + CYT” value ([4]; ST486, tumor preincubated 24 hours with 20 ng/ml γ-IFN and 3 ng/ml TNF-α) of the same molecule?
A: 1

Q: What about the Killing of tumor (lysis) ([5]; BT549, breast, A2 +, Her-2 +, no cytokine preincubation) of the same molecule?
A: 2%

Q: What about the “Killing of tumor (lysis) + CYT” value ([5]; BT549, tumor preincubated 24 hours with 20 ng/ml γ-IFN and 3 ng/ml TNF-α) of the same molecule?
A: 40

Q: And the Killing of tumor (lysis) ([6]; SAOS.175, osteosarcoma, A2 +, Her-2 +, no cytokine preincubation)?
A: 27%

Q: And the “Killing of tumor (lysis) + CYT” value ([6]; SAOS.175, tumor preincubated 24 hours with 20 ng/ml γ-IFN and 3 ng/ml TNF-α)?
A: 33

Q: What about the “Killing of tumor (lysis) + CYT” value [7, 21] of the same molecule?
A: 99

Q: What about the Killing of tumor (lysis) ([7]; glioblastoma, A2 +, Her-2 +, no cytokine preincubation) of the same molecule?
A: 20%

Q: And the “Killing of tumor (lysis) + CYT” value [8, 21]?
A: 1

Q: And the Killing of tumor (lysis) ([8]; glioblastoma, A2 +, Her-2 −, no cytokine preincubation)?
A: 2%

Q: What about the Killing of tumor (lysis) ([9]; SKMEL-5, melanoma, A2 +, Her-2 +, no cytokine preincubation) of the same molecule?
A: 6%

Q: And the “Killing of tumor (lysis) + CYT” value ([9]; SKMEL-5, tumor preincubated 24 hours with 20 ng/ml γ-IFN and 3 ng/ml TNF-α)?
A: 38

Q: What about the Killing of tumor (lysis) ([10]; Hep-G2, hepatoma, A2 +, Her-2 +, no cytokine preincubation) of the same molecule?
A: 4%

Q: And the “Killing of tumor (lysis) + CYT” value ([10]; Hep-G2, tumor preincubated 24 hours with 20 ng/ml γ-IFN and 3 ng/ml TNF-α)?
A: 20

Q: And the Killing of tumor (lysis) ([11]; MCF-7, breast, A2 +, Her-2 +, no cytokine preincubation)?
A: 7%

Q: What about the “Killing of tumor (lysis) + CYT” value ([11]; MCF-7, tumor preincubated 24 hours with 20 ng/ml γ-IFN and 3 ng/ml TNF-α) of the same molecule?
A: 54

Q: And the Killing of tumor (lysis) ([12]; SW480, colon, A2 +, Her-2 +, no cytokine preincubation)?
A: 6%

Q: And the “Killing of tumor (lysis) + CYT” value ([12]; SW480, tumor preincubated 24 hours with 20 ng/ml γ-IFN and 3 ng/ml TNF-α)?
A: 50

Q: What about the “Killing of tumor (lysis) + CYT” value [13, 21] of the same molecule?
A: 1

Q: What about the Killing of tumor (lysis) ([13]; lymphoma, A2 +, Her-2 −, no cytokine preincubation) of the same molecule?
A: 2%

Q: What about the “Killing of tumor (lysis) + CYT” value [14, 21] of the same molecule?
A: 57

Q: And the Killing of tumor (lysis) ([14]; melanoma, A2 +, Her-2 +, no cytokine preincubation)?
A: 28%

Q: And the “Killing of tumor (lysis) + CYT” value [15, 21]?
A: 30

Q: What about the Killing of tumor (lysis) ([15]; cervix, A2 +, Her-2 +, no cytokine preincubation) of the same molecule?
A: 13%

Q: And the Killing of tumor (lysis) ([16]; SV80, fibroblast, A2 +, Her-2 −, no cytokine preincubation)?
A: 4%

Q: And the “Killing of tumor (lysis) + CYT” value ([16]; SV80, tumor preincubated 24 hours with 20 ng/ml γ-IFN and 3 ng/ml TNF-α)?
A: 8

Q: What about the “Killing of tumor (lysis) + CYT” value [17, 21] of the same molecule?
A: 91

Q: What about the Killing of tumor (lysis) ([17]; osteosarcoma, A2 +, Her-2 +, no cytokine preincubation) of the same molecule?
A: 32%

Q: What about the Killing of tumor (lysis) ([18]; OVCAR-5, ovarian, A2 +, Her-2 +, no cytokine preincubation) of the same molecule?
A: 25%

Q: What about the “Killing of tumor (lysis) + CYT” value ([18]; OVCAR-5, tumor preincubated 24 hours with 20 ng/ml γ-IFN and 3 ng/ml TNF-α) of the same molecule?
A: 29

Q: And the Killing of tumor (lysis) ([19]; NCl.H1355, lung, A2 +, Her-2 +, no cytokine preincubation)?
A: 11%

Q: And the “Killing of tumor (lysis) + CYT” value ([19]; NCl.H1355, tumor preincubated 24 hours with 20 ng/ml γ-IFN and 3 ng/ml TNF-α)?
A: 38

Q: Which “% INHIBITION” value [20] does the source give for CLTSTVQLV [H15] here?
A: 33%
